The sample as a whole holds a higher share of hits than the screen did.
GIV Gai3 FP: inhibitors of GIV GBA-motif binding to rat Galpha-i3; Galpha-i3/FITC-GIV peptide fluorescence polarization, 90 min; stronger effect = lower value; scaled: aluminum fluoride 0%, vehicle 100%; P08753; hit rate 0.42% among 210,000; percent of control (FP), % (concentration not given with the values);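 active = replicate mean at 85% of control or lower, very high polarization wells dropped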;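 note: wells of about 15 µL received 100 nL stock; the first replicate is given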
HCMV UL50-53 inh: inhibitors of HCMV UL50-UL53 interaction, biochemical, HTRF; HCMV UL50-UL53 nuclear egress complex (human cytomegalovirus); inhibition, % (test concentration not listed); AID 1918969, 2023; actives 0.15% (n = 190,000); normalized percent inhibition; in the data active = inhibition above about 27%, passing the limit was not always enough
Of the large screens only hits and unclear results are named; the others gave an inactive call; ! = repeats disagree.

Oc1ccc2ccccc2c1C=Nc1c(F)c(F)c(F)c(F)c1F	none (no result: GIV Gai3 FP)
Oc1ccc2ccccc2c1/C=N/c1nccs1	HCMV UL50-53 inh 108.0
CC1CC(C)CN(c2cc(NCCO)c3c4c(onc24)-c2ccccc2C3=O)C1 (stereo not drawn)	none
CC(C)CNc1cc(Cl)c2noc3c2c1C(=O)c1ccccc1-3	GIV Gai3 FP -54.6 (no result: HCMV UL50-53 inh)
Cc1ccc(Sc2cc(Cl)c3noc4c3c2C(=O)c2ccccc2-4)cc1	none (no result: HCMV UL50-53 inh)
O=C1c2ccccc2-c2onc3c(NCCO)cc(NC4CCCCC4)c1c23	GIV Gai3 FP 45.5
CC(C)CNc1cc(NCCO)c2c3c(onc13)-c1ccccc1C2=O	GIV Gai3 FP -54.3 (no result: HCMV UL50-53 inh)
CCCCNc1cc(NC2CCCCC2)c2c3c(onc13)-c1ccccc1C2=O	none
CC1CN(C(=O)COc2ccccc2Cl)c2ccccc2NC1=O (stereo not drawn)	none
N#Cc1c(F)cccc1C(C#N)c1cccs1 (stereo not drawn)	none
N#CC1=C(N)SC(N)=C(C#N)C1c1ccncc1	none (no result: GIV Gai3 FP)
N#CC1=C(N)SC(N)=C(C#N)C1c1ccccc1	GIV Gai3 FP -0.3
CC(C)OC1(O)C(=O)c2ccccc2C(=O)C1(O)OC(C)C (stereo not drawn)	HCMV UL50-53 inh 99.2 (no result: GIV Gai3 FP)
CC(C)OC1(c2ccccc2)OC(=O)c2ccccc21 (stereo not drawn)	none (no result: HCMV UL50-53 inh)
Cc1cc2nc(NCc3ccc4c(c3)OCO4)c(C(=O)OC(C)C)nc2cc1C	GIV Gai3 FP 76.0
CCOC(=O)c1nc(NCc2ccc3c(c2)OCO3)c2ccccc2n1	none
Cc1ccc(NC2=CC(=O)c3sc(C)nc3C2=O)cc1	HCMV UL50-53 inh 103.2! (no result: GIV Gai3 FP)
Cc1ccc(Nc2nnc(C)c(=O)[nH]2)cc1	none
Nc1nnc(CCC2CCCCC2)s1	none
N#CC1=C(N)SC(N)=C(C#N)C1CCC1CCCCC1	GIV Gai3 FP -94.8
CCn1c(SCC(=O)N2CCCCC2)nnc1-c1ccccc1O	none (no result: HCMV UL50-53 inh)
O=c1c(O)c(N2CCc3ccccc3C2)c1=O	none
CN(C)Cc1c(O)ccc2cc(-c3nc4ccccc4s3)c(=O)oc12	GIV Gai3 FP -45.3
O=c1oc2c(CN3CCCCCC3)c(O)ccc2cc1-c1nc2ccccc2s1	GIV Gai3 FP -31.8
O=c1oc2c(CN3CCN(CCO)CC3)c(O)ccc2cc1-c1nc2ccccc2s1	GIV Gai3 FP -45.3
COc1cccc2cc(-c3nc4ccccc4s3)c(=O)oc12	none (no result: GIV Gai3 FP)
O=c1oc2ccccc2cc1-c1nc2ccccc2s1	none
COc1ccc(-c2cc3ccc(O)c(CN4CCN(CCO)CC4)c3oc2=O)cc1OC	none (no result: HCMV UL50-53 inh)
O=c1oc2c(CN3CCCCC3)c(O)ccc2cc1-c1nc2ccccc2s1	GIV Gai3 FP -31.8
O=c1oc2c(CN3CCOCC3)c(O)ccc2cc1-c1ccccc1	none (no result: HCMV UL50-53 inh)
CCOc1ccccc1NC(=O)C(C)Sc1nnc2ccc3ccccc3n12 (stereo not drawn)	none
COc1ccc(N2CCN(C(=O)CSc3nnc4c5ccccc5n(CC(=O)O)c4n3)CC2)cc1	none
COc1ccc(S(=O)(=O)Nc2ccccc2SCc2cc(=O)n3cc(Cl)ccc3n2)cc1	none
CC1=C(C(=O)OCCOc2ccccc2)C(c2ccc3c(c2)OCO3)C2=C(CC(c3cccs3)CC2=O)N1 (stereo not drawn)	none (no result: HCMV UL50-53 inh)
CCn1cc(/C=N/O)c2ccccc21	none
CCc1ccc(S(=O)(=O)N2CCCC2c2cc(C)no2)cc1 (stereo not drawn)	none (no result: HCMV UL50-53 inh)
CC1CCN(Cc2c(O)ccc3cc(-c4nc5ccccc5s4)c(=O)oc23)CC1	GIV Gai3 FP -31.8
CN1CCN(Cc2c(O)ccc3cc(-c4nc5ccccc5n4C)c(=O)oc23)CC1	none
Cc1cc(N(C)C)n2nc(-c3ccccc3)nc2n1	none
CN(C)c1ccc2c3c(cccc13)C(=O)N(c1nc3ccccc3n1C)C2=O	none
CC(=O)NN1C(=O)c2cccc3c(N(C)C)ccc(c23)C1=O	GIV Gai3 FP 65.6 (no result: HCMV UL50-53 inh)
O=C(CSc1c2c(nc3ccccc13)CCC2)Nc1ccccc1F	none
O=C(CSc1nnc(-c2ccco2)o1)N1N=C2/C(=C/c3ccco3)CCCC2C1c1ccco1 (stereo not drawn)	none (no result: GIV Gai3 FP)
CC1(C)CC(=O)C2=C(C1)Nc1ccccc1N(C(=O)NC1CCCC1)C2c1ccc(F)cc1 (stereo not drawn)	none (no result: HCMV UL50-53 inh)
CCCCOC(=O)c1ccc(NC(=O)c2cc(=O)c3ccccc3o2)cc1	none
CCCCOC(=O)c1cccc(NC(=O)c2cc3ccccc3o2)c1	HCMV UL50-53 inh 138.2
COc1ccc(-c2[nH]nc3c2C2(C(=O)Nc4ccc(Br)cc42)C(C#N)=C(N)O3)cc1OC (stereo not drawn)	none
COc1cc(C=C2C(=O)N(C)C(=O)N(C)C2=O)ccc1OS(=O)(=O)c1ccccc1[N+](=O)[O-]	HCMV UL50-53 inh 43.0
CCOc1cc(/C=C2/C(=O)N(c3ccccc3)N=C2C)ccc1OS(=O)(=O)c1ccccc1[N+](=O)[O-]	none
Cc1cnc(CN(C)Cc2ccc(-c3nc(C(F)(F)F)c(C)c(=O)[nH]3)cc2)[nH]1	none (no result: GIV Gai3 FP)
COc1ccc(C(=O)Nc2nc3n(n2)C(c2ccc(Cl)cc2)C=C(c2ccccc2)N3)cc1OC (stereo not drawn)	GIV Gai3 FP 40.5
COc1ccc(C2C=C(c3ccccc3)Nc3nc(NC(=O)c4ccc(C)cc4)nn32)cc1 (stereo not drawn)	none
O=C(Nc1nc2n(n1)C(c1ccc(Cl)cc1)C=C(c1ccccc1)N2)c1ccco1 (stereo not drawn)	GIV Gai3 FP -44.3
O=C(Nc1nc2n(n1)C(c1ccc(F)cc1)C=C(c1ccccc1)N2)c1ccco1 (stereo not drawn)	none
Cc1ccc(C2=CC(c3ccc(Cl)cc3)n3nc(-c4ccc(C)cc4)nc3N2)cc1 (stereo not drawn)	none
COc1ccc(C2C=C(c3ccc(Cl)cc3)Nc3nc(-c4ccc(Cl)cc4)nn32)cc1 (stereo not drawn)	GIV Gai3 FP -8.2!
CCCNC(=O)C1CCN(c2nc3nc[nH]c(=O)c3s2)CC1	none
Cc1cc(C(=O)/C(C#N)=C/Nc2cccc(OC(F)(F)F)c2)c(C(F)(F)F)o1	none
Cc1ccc(CNC(=O)CSc2nc3ncccc3n3cccc23)cc1	none
CCc1onc(C)c1C1CCCN1Cc1ccc(Cl)cc1 (stereo not drawn)	none (no result: HCMV UL50-53 inh)
CC1CCCCN1C(=O)c1c[nH]c2ccc(S(=O)(=O)N(C)c3ccc(Br)cc3)cc2c1=O (stereo not drawn)	none (no result: HCMV UL50-53 inh)
COc1cc(/C=C2/OC(=S)N(C)C2=O)ccc1O	GIV Gai3 FP -72.6
COc1ccc(/C=C2\OC(=S)N(C)C2=O)cc1	none (no result: HCMV UL50-53 inh)
COc1ccc(CCN2C(=O)CC(Nc3cc(C(=O)O)ccc3C)C2=O)cc1 (stereo not drawn)	none (no result: GIV Gai3 FP)
CC(=O)Nc1nc(-c2ccc(S(=O)(=O)Nc3ccc(C)cc3)cc2)cs1	none
O=C(/C=c1/[nH]c(=O)/c(=C/c2ccccc2C(F)(F)F)s1)c1ccco1	none (no result: GIV Gai3 FP)
CN(C)/C=c1\s/c(=C/C(=O)c2cccs2)[nH]c1=O	GIV Gai3 FP 72.5
CC1CCCN(C(=O)c2snc3c(=O)n(C)c(=O)[nH]c23)C1 (stereo not drawn)	none (no result: HCMV UL50-53 inh)
CN(C)S(=O)(=O)c1cc(C(=O)NCc2ccco2)c(Cl)cc1Cl	none (no result: GIV Gai3 FP)
CC1CC(C)CN(S(=O)(=O)c2ccc(C(=O)Nc3nc4ccc([N+](=O)[O-])cc4s3)cc2)C1 (stereo not drawn)	none
Cc1ccc(NC(=O)CS(=O)CC(=O)Nc2ccc(N3CCOCC3)cc2)cc1Cl (stereo not drawn)	none
Cc1ccc(C)c(OCCCC(=O)Nc2ccc(N3CCOCC3)cc2)c1	HCMV UL50-53 inh 92.1
COc1cc(OC)c(OC)cc1CN1CCN(c2cccc(C)c2C)CC1	HCMV UL50-53 inh 73.2

Screens: PubChem, ICCB-Longwood Screening Facility, Harvard Medical School
